This excerpt belongs to a sample that is enriched for hits.
HCMV UL50-53 inh – inhibitors of HCMV UL50-UL53 nuclear egress complex interaction; actives 0.15% (n = 190,000); HTRF UL50-UL53 interaction, normalized percent inhibition; AID 1918969; inhibition, % (concentration not given with the values); in the data active means inhibition above about 27%, passing the limit was not always enough
GIV-Gai inh – blocks GIV peptide binding to rat Galpha-i3. P08753. Galpha-i3/FITC-GIV peptide fluorescence polarization, 90 min; stronger effect = lower value; scaled: aluminum fluoride 0%, vehicle 100%. percent of control (FP), % (concentration not given with the values). hit rate 0.42% among 210,000. AID 1224905;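 active means replicate mean at 85% of control or lower, very high polarization wells dropped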;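 further: wells of about 15 µL received 100 nL stock; the first replicate is given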
GIV Gai FP conf – confirmation of inhibitors of GIV binding to rat Galpha-i3; fluorescence polarization, mP at 100 µM; FITC-GIV peptide binding to Galphai3, fluorescence polarization; stronger effect = lower value; shares compounds with GIV-Gai inh; actives 38% (n = 580);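 active means inhibition score of 15 or more, meaning 100 minus mean polarization as percent of control over three replicates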
GIV Gai AS conf – confirmation of inhibitors of GIV binding to human Galpha-i3. actives 39% (n = 580). AlphaScreen counts at 100 µM. shares compounds with GIV-Gai inh. AlphaScreen Galphai3-GIV binding, purified proteins, 90 min; stronger effect = lower value;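 active means inhibition score at or above a set limit, where the score is 100 minus the three-replicate mean percent of control signal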
Each line names hits and unclear results; the compound was inactive in the other large screens (follow-up assays come after a bar, where they were run); ! = a repeat was not active.

Cc1cc(N)nn1C(=O)CSc1nc2cc(C(=O)N3CCC(C(N)=O)CC3)ccc2c(=O)n1Cc1ccco1	none (no result: HCMV UL50-53 inh)
CCc1ccc(NC(=O)Cn2c(=O)n(-c3ccc(Cl)c(Cl)c3)c(=O)c3c(C)c(C)sc32)cc1	none
CN1C(=O)/C(=C\c2ccc(-c3ccc(S(N)(=O)=O)cc3)o2)c2ccccc21	none (no result: GIV-Gai inh)
CC1(C)OC(=O)C(=Cc2ccc(-c3ccc(S(N)(=O)=O)cc3)o2)C(=O)O1	none | GIV Gai FP conf inactive | GIV Gai AS conf 4423
CC1=C(C#N)C(=O)N(C)C(=O)/C1=C/c1ccc(-c2cccc(Cl)c2C)o1	none
CC1=C(C#N)C(=O)N(C)C(=O)/C1=C/c1ccc(-c2ccccc2C(=O)O)o1	GIV-Gai inh 84.4 | GIV Gai FP conf inactive | GIV Gai AS conf 2072
CC1=C(C#N)C(=O)N(CCc2ccccc2)C(=O)/C1=C\c1ccc(-c2cccc(Cl)c2)o1	none
C=CCN1C(=O)C(C#N)=C(C)/C(=C\c2ccc(-c3cccc(C(=O)O)c3)o2)C1=O	GIV-Gai inh 83.2 | GIV Gai FP conf inactive | GIV Gai AS conf 2591
Cc1c(C(=O)Nc2ccc(F)c(Cl)c2)oc2ccc(S(=O)(=O)N(C)C3CCCCC3)cc12	none (no result: HCMV UL50-53 inh)
CCOc1ccc(NC(=O)c2ccc3[nH]c(C)cc(=O)c3c2)cc1	none
Cc1ccc(NC(=O)c2ccc3[nH]c(C)cc(=O)c3c2)cc1	none | GIV Gai FP conf inactive | GIV Gai AS conf inactive
N#Cc1c(Sc2ccccc2)ncc2cc3ccccc3nc12	GIV-Gai inh 79.2 | GIV Gai FP conf inactive | GIV Gai AS conf inactive
CSc1nc(C)nc(Sc2ccccc2)c1C#N	none
Cc1nc2nc(-c3ccccc3)nn2c(C)c1CC(=O)NC(C)C	none
C=CCN1C(=O)S/C(=C/c2ccc(N3CCOCC3)cc2)C1=O	none | GIV Gai FP conf inactive | GIV Gai AS conf inactive
O=C1S/C(=C\c2ccccc2)C(=O)N1CN1CCOCC1	none
O=C(CSc1nnc(-c2ccccn2)c(-c2ccccn2)n1)c1ccc(N2CCCC2=O)cc1	none
O=C(CSc1nnc2c(n1)CCCC2)c1ccc(N2CCCC2=O)cc1	GIV-Gai inh 65.7 | GIV Gai FP conf 53 | GIV Gai AS conf 2430
Clc1ccccc1C1CC(c2ccco2)=Nc2ccccc2S1 (centres undefined)	none (no result: HCMV UL50-53 inh)
CCC(=O)Nc1cc2nc3[nH]c(=O)n(C)c(=O)c3nc2cc1C	GIV-Gai inh 21.1 | GIV Gai FP conf 45.6 | GIV Gai AS conf inactive
CCCCCCC(=O)Nc1cc2nc3[nH]c(=O)n(C)c(=O)c3nc2cc1C	none
Cc1onc(-c2ccccc2)c1-c1csc(CC#N)n1	none
CNC(=O)CN1C(=O)/C(=C/c2ccccc2C)Sc2ccccc21	none (no result: HCMV UL50-53 inh)
COc1ccc(Cl)cc1NC(=O)c1sc2nc(C)nc(N3CCN(C)CC3)c2c1C	none (no result: HCMV UL50-53 inh)
Cc1nc(N2CCN(C)CC2)c2c(C)c(C(=O)Nc3cccc(Cl)c3)sc2n1	none (no result: HCMV UL50-53 inh) | GIV Gai FP conf inactive | GIV Gai AS conf inactive
O=S(=O)(Cc1ccccc1)n1cc(Cl)cn1	none
COc1cccc(C2NCCc3ccccc32)c1 (centres undefined)	none (no result: HCMV UL50-53 inh)
O=C(O)C(Cc1ccccc1)N1C(=O)/C(=C\c2ccco2)SC1=S (centres undefined)	none
O=C(O)CC(C(=O)O)N1C(=O)/C(=C\c2ccco2)SC1=S (centres undefined)	none | GIV Gai FP conf 53.3 | GIV Gai AS conf 3647
Cc1cc(C)n2nc(CN(C(=O)CC(C)C)c3ccccc3)nc2n1	none | GIV Gai FP conf inactive | GIV Gai AS conf inactive
CCCC(=O)N(Cc1nc2nc(C)cc(C)n2n1)c1ccccc1	none
CC(=O)Nc1ccc2sc(C)nc2c1	none
CCCCCCC(=O)Nc1ccc2nc3c(=O)[nH]c(=O)[nH]c3nc2c1	GIV-Gai inh 83.2 | GIV Gai FP conf 44.3 | GIV Gai AS conf 16182
CCCC(=O)Nc1ccc2[nH]c(=O)[nH]c2c1	none (no result: GIV-Gai inh)
CC(=O)Nc1ccc2nc3c(=O)[nH]c(=O)[nH]c3nc2c1	GIV-Gai inh 66.1 | GIV Gai FP conf 58.1 | GIV Gai AS conf 5170
CC(=O)N1c2ccccc2NC2=C(C(=O)CC(c3cccc([N+](=O)[O-])c3)C2)C1c1ccc(Cl)cc1 (centres undefined)	none
Cc1cc2occ(CC(=O)Nc3ccc(S(=O)(=O)C(F)F)cc3)c2cc1C	none (no result: GIV-Gai inh)
S=C(Nc1ccc2nsnc2c1)N1CCCC1	GIV-Gai inh 80.9 (no result: HCMV UL50-53 inh) | GIV Gai FP conf 23.5 | GIV Gai AS conf 11675
COc1cccc(NC(=O)c2ccc3nsnc3c2)c1	none
CCN(CC)C(=S)Nc1ccc2nsnc2c1	GIV-Gai inh 65.6 (no result: HCMV UL50-53 inh) | GIV Gai FP conf 26.7 | GIV Gai AS conf 10807
Fc1ccc(NC(=S)N2CCCCC2)cc1	none
O=C(Nc1ccc2c(c1)OCCO2)C1CCCN(c2nc3cccnc3s2)C1 (centres undefined)	none
Nc1ccccc1NCCc1ccccc1	none (no result: GIV-Gai inh)
COc1ccc(OC)c(NC(=O)N2CCN(c3nc4ccccc4n4cccc34)CC2)c1	none (no result: HCMV UL50-53 inh)
COc1ccc(Cl)cc1NC(=O)N1CCN(c2nc3ccccc3n3cccc23)CC1	GIV-Gai inh 83.3 (no result: HCMV UL50-53 inh) | GIV Gai FP conf inactive | GIV Gai AS conf inactive
O=C(NCCc1ccc(S(=O)(=O)N2CCCC2)cc1)c1cccs1	none (no result: GIV-Gai inh)
CNC(=O)NC(=O)CN1CCCc2cc(C)ccc21	none (no result: GIV-Gai inh)
CCCN1CCCc2cc(CN)ccc21	GIV-Gai inh 64.7 | GIV Gai FP conf 51.3 | GIV Gai AS conf 9116
CC(C)N1CCCc2cc(CN)ccc21	none (no result: GIV-Gai inh)
CCN1CCCc2cc(O)ccc21	GIV-Gai inh -9.7 | GIV Gai FP conf 8.3 | GIV Gai AS conf 5580
COc1ccc(C(=O)N2c3ccccc3CC2C)cc1 (centres undefined)	none
O=C1Nc2c(ccc(Cl)c2Cl)C(=O)C1(F)c1ccccc1 (centres undefined)	none
CC(=O)NC1=NC(=O)/C(=C\c2cccs2)N1C	GIV-Gai inh 80.3 | GIV Gai FP conf 45.3 | GIV Gai AS conf inactive
NC1=NC(=O)/C(=C/c2cccs2)S1	none
CCc1ccccc1Nc1nc(N)nc(CSCC(=O)c2cc(C)n(C)c2C)n1	none (no result: GIV-Gai inh)
CNC(=O)c1cn(-c2ccccc2)c(=O)c2ccccc12	none
CC(=O)n1c(=O)c2ccccc2c(=O)n1-c1ccccc1	GIV-Gai inh 78.6! | GIV Gai FP conf 52 | GIV Gai AS conf 2364
O=C(/C=C/Sc1nc2cc(Cl)c(F)cc2[nH]1)c1ccccc1	none
Cc1ccc2nc(S/C=C/C(=O)c3ccccc3)[nH]c2c1	none | GIV Gai FP conf inactive | GIV Gai AS conf inactive
Cc1ccc(S(=O)(=O)/N=C(\NN(C)C)c2ccccc2)cc1	none (no result: GIV-Gai inh)
CC1(C)CC2(CCCN(C(=S)Nc3ccccc3)C2)CCO1 (centres undefined)	none (no result: HCMV UL50-53 inh) | GIV Gai FP conf inactive | GIV Gai AS conf inactive
CC1(C)CC2(CCCN(CCC(O)(c3ccccc3)c3ccccc3)C2)CCO1 (centres undefined)	none (no result: GIV-Gai inh)
O=C(CN1CCN(Cc2ccccc2)C1=O)NC1CCCCCCC1	none (no result: HCMV UL50-53 inh)
COc1ccc(/C=c2\sc3nc(-c4ccccc4)c(-c4ccccc4)n3c2=O)c(OC)c1OC	none (no result: HCMV UL50-53 inh) | GIV Gai FP conf inactive | GIV Gai AS conf inactive
COc1ccc(/C=c2\sc3nc(-c4ccccc4)c(-c4ccccc4)n3c2=O)cc1OC	none (no result: HCMV UL50-53 inh)
COc1ccc(OCCn2c(NC(=O)c3ccco3)nc3ccccc32)cc1	none
O=C(Nc1cnn(Cc2ccc(F)cc2)c1)c1cnccn1	none (no result: HCMV UL50-53 inh)

Source: PubChem
